Test results published in patent US7129213B2, “Tripeptides and tripeptide derivatives for the treatment of neurodegenerative diseases” (Neurotell AG, priority 2002, dated 2006).

## NCC(=O)N[C@@H](Cc1ccccc1)C(=O)N1CCC[C@H]1C(=O)O [H-Gly-Phe-Pro-OH]
  PAMPA classification, predicted absorption after peroral application: weakly absorbed
